In general, IC50 refers to the concentration needed to halve the response being measured. For orientation: EC50 means the concentration that produces a half-maximal response. A low value points to an effect from little substance.

The chains behind the UniProt entries cited, without tags or fusion partners.
UniProt P32245, whole entry: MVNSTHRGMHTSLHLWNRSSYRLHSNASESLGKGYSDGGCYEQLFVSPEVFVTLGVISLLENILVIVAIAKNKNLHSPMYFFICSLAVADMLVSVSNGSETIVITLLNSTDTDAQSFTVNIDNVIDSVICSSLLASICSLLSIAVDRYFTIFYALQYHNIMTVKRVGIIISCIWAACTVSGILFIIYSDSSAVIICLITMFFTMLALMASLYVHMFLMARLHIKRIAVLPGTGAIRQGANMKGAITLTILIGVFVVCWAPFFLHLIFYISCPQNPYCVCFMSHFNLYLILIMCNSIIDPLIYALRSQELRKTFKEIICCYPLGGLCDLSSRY
UniProt P41968, whole entry: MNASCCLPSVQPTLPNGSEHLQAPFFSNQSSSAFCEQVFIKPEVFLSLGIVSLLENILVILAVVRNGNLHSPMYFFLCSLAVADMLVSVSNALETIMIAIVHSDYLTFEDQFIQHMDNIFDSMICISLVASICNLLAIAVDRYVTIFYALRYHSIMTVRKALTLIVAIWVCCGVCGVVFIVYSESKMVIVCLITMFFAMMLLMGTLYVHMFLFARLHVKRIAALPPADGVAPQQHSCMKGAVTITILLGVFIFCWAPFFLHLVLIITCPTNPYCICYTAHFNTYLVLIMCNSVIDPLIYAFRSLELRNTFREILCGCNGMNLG
UniProt P33032, whole entry: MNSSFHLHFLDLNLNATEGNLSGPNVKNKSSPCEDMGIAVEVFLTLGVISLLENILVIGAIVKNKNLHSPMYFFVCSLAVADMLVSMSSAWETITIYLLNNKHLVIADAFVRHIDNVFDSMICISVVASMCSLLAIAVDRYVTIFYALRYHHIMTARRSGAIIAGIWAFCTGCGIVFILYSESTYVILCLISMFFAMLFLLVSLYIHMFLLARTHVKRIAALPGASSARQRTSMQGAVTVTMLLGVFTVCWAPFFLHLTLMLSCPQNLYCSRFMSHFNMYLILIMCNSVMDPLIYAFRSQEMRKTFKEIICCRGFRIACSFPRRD
UniProt Q01726, whole entry: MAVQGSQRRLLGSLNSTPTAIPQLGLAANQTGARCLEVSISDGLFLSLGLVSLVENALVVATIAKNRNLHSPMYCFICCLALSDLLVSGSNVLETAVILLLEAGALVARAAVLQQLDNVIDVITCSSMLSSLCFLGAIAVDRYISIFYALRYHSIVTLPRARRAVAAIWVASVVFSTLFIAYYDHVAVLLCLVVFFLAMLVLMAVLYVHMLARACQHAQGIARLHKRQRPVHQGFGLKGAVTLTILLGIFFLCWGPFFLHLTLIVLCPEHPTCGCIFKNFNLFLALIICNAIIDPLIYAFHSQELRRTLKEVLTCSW

Molecules are shown by their SMILES. Like-named read-outs stand apart in the source and are kept apart here. A value given as a limit tells only on which side of the number the result lay.

Assay [1] deals with human melanocortin 4 receptor (MC4R) (Homo sapiens, UniProt P32245). The assay is described as follows: cAMP accumulation assay (HTRF), antagonist and/or agonist activity at MC4R (Example 1, Table 13, FIGS. 5-8). The conditions noted are these: for Top (%): top of curve. Background: Cyclic AMP is a second messenger, typically raised through Gs and lowered through Gi signalling.

Assay [2] deals with human melanocortin 3 receptor (MC3R) (Homo sapiens, UniProt P41968). The assay is described as follows: cAMP accumulation assay (HTRF), antagonist and/or agonist activity at MC3R (Example 1, Table 12, FIGS. 1-4). The conditions noted are these: MC3R, antagonist activity, dose-response; for IC50: cAMP.
Assay [3] concerns the target melanocortin 5 receptor (MC5R) (Homo sapiens, UniProt P33032). The assay is described as follows: cAMP accumulation assay (HTRF), agonist and/or antagonist activity at MC5R (Example 1, Table 14). The note with it: dose-response against MC5R; for Top (%): top of curve.
Assay [4] deals with melanocortin 1 receptor (MC1R) (Homo sapiens, UniProt Q01726). The assay is described as follows: cAMP accumulation assay (HTRF), agonist and/or antagonist activity at MC1R (Example 1, Table 11). The conditions noted are these: dose-response; for EC50: cAMP.
[5] abbreviates: Table 13, dose-response against MC4R, cAMP.

Regarding `CCCC[C@H](NC(C)=O)C(=O)N[C@H]1CC(=O)NCCCC[C@@H](C(=O)N[C@@H](C(=O)N2CCC[C@@H]2C(N)=O)C(C)C)NC(=O)[C@@H]2CCCN2C(=O)[C@H](Cc2c[nH]c3ccccc23)NC(=O)[C@H](CCCNC(=N)N)NC(=O)[C@@H](Cc2ccc3ccccc3c2)NC(=O)[C@H](Cc2c[nH]cn2)NC1=O`, in assay [1] (setting [5]), the “Hill Coefficient” value stood at 1.53, the concentration for half-maximal inhibition (IC50) is 46.7 nM and the “Top (%)” value is given as 67.13%. Further, in assay [2], the “Hill Coefficient” value was 1.10, the Top was 100% and the IC50 came to 407 nM. Further, in assay [3], the EC50 was found to be 3.22 nM, the “Hill Coefficient” value was 1.19 and the “Top (%)” value came out at 101.59%. Moreover, in assay [4], the “Hill Coefficient” value is listed as 1.12, the Top amounted to 101.26% and the half-maximal effective concentration (EC50) was determined as 0.38 nM.
As to `CCCC[C@H](NC(C)=O)C(=O)N[C@H]1CC(=O)NCCCC[C@@H](C(=O)N[C@@H](C(=O)N2CCC[C@@H]2C(N)=O)C(C)C)NC(=O)[C@H](Cc2c[nH]c3ccccc23)NC(=O)[C@H](CCCNC(=N)N)NC(=O)[C@@H](Cc2ccc3ccccc3c2)NC(=O)[C@H](Cc2c[nH]cn2)NC(=O)[C@@H]2CCCN2C1=O`, in assay [1] (setting [5]), the “Hill Coefficient” value is 0.89, the concentration for half-maximal inhibition (IC50) stood at 27.2 nM and the “Top (%)” value stood at 74.47%. Besides, in assay [2], the “Hill Coefficient” value was 0.97, the Top worked out at 89.34% and the IC50 was 26.2 nM. In assay [3], the EC50 was 14 nM and the “Hill Coefficient” value is on record as 1.07. In assay [4], the “Hill Coefficient” value is recorded as 1.19, the Top is listed as 100.65% and the EC50 was determined as 22.3 nM.
In the case of `CC(=O)N[C@H](Cc1ccccc1)C(=O)N[C@H]1CC(=O)NCCCC[C@@H](C(=O)N[C@@H](C(=O)N2CCC[C@@H]2C(N)=O)C(C)C)NC(=O)[C@H](Cc2c[nH]c3ccccc23)NC(=O)[C@H](CCCNC(=N)N)NC(=O)[C@@H](Cc2ccc3ccccc3c2)NC(=O)[C@@H]2CCCN2C1=O`, the concentration for half-maximal inhibition (IC50) in assay [1] (setting [5]) was above 1000 nM; in assay [2] it was 4.79 nM. Further, the concentration giving a half-maximal response (EC50) in assay [3] was 4.5 nM; in assay [4], 640 nM.
As for `CCCC[C@H](NC(C)=O)C(=O)N[C@H]1CC(=O)NCCCC[C@@H](C(=O)N[C@@H](CC(=O)O)C(=O)N2CCC[C@@H]2C(N)=O)NC(=O)[C@H](Cc2c[nH]c3ccccc23)NC(=O)[C@H](CCCNC(=N)N)NC(=O)[C@@H](Cc2ccc3ccccc3c2)NC(=O)[C@@H]2CCCN2C1=O`, the concentration for half-maximal inhibition (IC50) worked out at 500 nM in assay [1] (setting [5]) and 12.4 nM in assay [2]. Moreover, the EC50 in assay [3] came to 1.9 nM; in assay [4] it was 100 nM.
`CCCC[C@H](NC(C)=O)C(=O)N[C@H]1CC(=O)NCCC[C@@H](C(=O)N[C@@H](C(=O)N2CCC[C@@H]2C(N)=O)C(C)C)NC(=O)[C@H](Cc2c[nH]c3ccccc23)NC(=O)[C@H](CCCNC(=N)N)NC(=O)[C@@H](Cc2ccc3ccccc3c2)NC(=O)[C@@H]2CCCN2C1=O`: the IC50 in assay [1] (setting [5]) worked out at 41 nM; in assay [2], 0.96 nM. Also, the values for the EC50 in assay [3] and in assay [4] were 0.02 nM and 13 nM, respectively.
On to `CCCC[C@H](NC(C)=O)C(=O)N[C@H]1CC(=O)NCCCC[C@@H](C(=O)N[C@@H](C(=O)N[C@@H](CC(=O)O)C(N)=O)C(C)C)NC(=O)[C@H](Cc2c[nH]c3ccccc23)NC(=O)[C@H](CCCNC(=N)N)NC(=O)[C@@H](Cc2ccc3ccccc3c2)NC(=O)[C@@H]2CCCN2C1=O`, for which the IC50 in assay [1] (setting [5]) was 160 nM; in assay [2] it was 5.41 nM. Moreover, the figures for the EC50 in assay [3] and in assay [4] were 0.53 nM and 110 nM, respectively.
With `CCCC[C@H](NC(C)=O)C(=O)N[C@@H](CC(=O)O)C(=O)N1CCC[C@H]1C(=O)N[C@H](Cc1ccc2ccccc2c1)C(=O)N[C@@H](CCCNC(=N)N)C(=O)N[C@@H](Cc1c[nH]c2ccccc12)C(=O)N[C@@H](CCCCN)C(=O)N[C@@H](C(=O)N1CCC[C@@H]1C(N)=O)C(C)C`, in assay [1] (setting [5]), the “Hill Coefficient” value is listed as 1.19, the IC50 is 16.4 nM and the “Top (%)” value worked out at 94.30%. Moreover, in assay [2], the “Hill Coefficient” value was 0.83, the Top is reported as 94.81% and the half-maximal inhibitory concentration (IC50) came out at 17.2 nM. In assay [3], the EC50 worked out at 0.024 nM, the “Hill Coefficient” value came out at 1.15 and the “Top (%)” value is 101.47%. For the same compound, in assay [4], the “Hill Coefficient” value is 0.91, the Top came to 95.46% and the concentration for a half-maximal effect (EC50) stood at 5.79 nM.
`CC(=O)N1CCC[C@@H]1C(=O)N[C@H]1CC(=O)NCCCC[C@@H](C(=O)N[C@@H](C(=O)N2CCC[C@@H]2C(N)=O)C(C)C)NC(=O)[C@H](Cc2c[nH]c3ccccc23)NC(=O)[C@H](CCCNC(=N)N)NC(=O)[C@@H](Cc2ccc3ccccc3c2)NC(=O)[C@@H]2CCCN2C1=O`: the 50% inhibitory concentration (IC50) is above 1000 nM in assay [1] (setting [5]) and 19.2 nM in assay [2]. For the same compound, the EC50 was 95 nM in assay [3] and above 1000 nM in assay [4].
For the compound `CCCC[C@H](NC(C)=O)C(=O)N[C@H]1CC(=O)NCCCC[C@@H](C(=O)N2CCC[C@@H]2C(=O)N[C@@H](C(=O)O)C(C)C)NC(=O)[C@H](Cc2c[nH]c3ccccc23)NC(=O)[C@H](CCCNC(=N)N)NC(=O)[C@@H](Cc2ccc3ccccc3c2)NC(=O)[C@@H]2CCCN2C1=O`, the IC50 in assay [1] (setting [5]) was 670 nM; in assay [2] it was 49.5 nM. Moreover, the EC50 in assay [3] came to 1.5 nM; in assay [4], 290 nM.
On the same counts, the results for `CC(=O)N[C@H](CCC(N)=O)C(=O)N[C@H]1CC(=O)NCCCC[C@@H](C(=O)N[C@@H](C(=O)N2CCC[C@@H]2C(N)=O)C(C)C)NC(=O)[C@H](Cc2c[nH]c3ccccc23)NC(=O)[C@H](CCCNC(=N)N)NC(=O)[C@@H](Cc2ccc3ccccc3c2)NC(=O)[C@@H]2CCCN2C1=O` are above 1000 nM, 460 nM, 45 nM and above 1000 nM.
With `CC(=O)N[C@H](CS)C(=O)N[C@H]1CC(=O)NCCCC[C@@H](C(=O)N[C@@H](C(=O)N2CCC[C@@H]2C(N)=O)C(C)C)NC(=O)[C@H](Cc2c[nH]c3ccccc23)NC(=O)[C@H](CCCNC(=N)N)NC(=O)[C@@H](Cc2ccc3ccccc3c2)NC(=O)[C@@H]2CCCN2C1=O`, the half-maximal inhibitory concentration (IC50) is 480 nM in assay [1] (setting [5]); below 10000 nM in assay [1] (read-out: IC50 (antagonist activity on MC4R), cAMP levels, antagonist); 20.4 nM in assay [2]. For the same compound, the EC50 came to 0.54 nM in assay [3] and 420 nM in assay [4].
For `CCCC[C@H](NC(C)=O)C(=O)N[C@H]1CC(=O)NCCCC[C@@H](C(=O)N[C@@H](C(=O)N2CCC[C@@H]2C(N)=O)C(C)C)NC(=O)[C@H](Cc2c[nH]c3ccccc23)NC(=O)[C@H](CCCNC(=N)N)NC(=O)[C@@H](Cc2ccc3ccccc3c2)NC(=O)[C@H](Cc2c[nH]cn2)NC(=O)[C@@H]2CCCN2C(=O)[C@H](Cc2ccccc2)NC(=O)[C@H](Cc2ccccc2)NC1=O`, in assay [1] (setting [5]), the “Hill Coefficient” value is given as 1.49, the IC50 was 54.9 nM and the “Top (%)” value came out at 81.82%. Besides, in assay [2], the “Hill Coefficient” value is given as 1.33, the Top came out at 92.55% and the IC50 turned out to be 201 nM. Also, in assay [3], the EC50 is 10.5 nM, the “Hill Coefficient” value was found to be 1.52 and the “Top (%)” value was found to be 100.67%. In assay [4], the “Hill Coefficient” value is on record as 2.04, the Top amounted to 99.10% and the EC50 was found to be 29 nM.
